In US20220016272A1, “COMPOSITIONS, METHODS AND KITS FOR DIAGNOSING AND TREATING CD206 EXPRESSING CELL-RELATED DISORDERS” (Cardinal Health 414, LLC, priority 2013, published 2022):

Settings: injected close to the diseased locus

dextran 3-[(2-aminoethyl)thio]propyl 17-carboxy-10,13,16-tris (carboxymethyl)-8-oxo-4-thia-7,10,13,16-tetraazaheptadec-1-yl 3-[[2-[[1-imino-2-(D-mannopyranosylthio) ethyl]aminolethyllthiolpropyl ether complexes [tilmanocept]
injection site clearance attributed to small diameter: rapid injection site clearance
